Values of other authors, collected in patent US20220183963A1, “IMPLANTABLE DEPOTS FOR THE LOCALIZED, SUSTAINED, CONTROLLED RELEASE OF THERAPEUTIC AGENTS TO TREAT CANCER AND RELATED SYMPTOMS AND CONDITIONS” (Foundry Therapeutics, Inc., priority 2019, published 2022).

Conditions: PVP electrospun nanofiber and 2.5 wt % Tween 20

In the case of maraviroc, the “time to complete release of 28 wt % maraviroc” value is given as “six minutes”.
